Test results published in patent US3939204A, “Radioactive functional diagnostic agents” (priority 1972, dated 1976).

What was measured:
[1] = distribution in the body as function of time after intravenous administration, measured by scinticamera; conditions: humans, approximately 0.25 millicurie per injection
[2] = background statement in words; cited from earlier work

bromthalein-131-iodine sodium salt [C]
Time of Appearance in Gallbladder [1]: 45 min
Time of Appearance in Intestine [1]: 15 min
Blood T 1/2 ([1]; elimination from blood into liver cells): 4.5 min
Maximum Liver Accumulation ([1]; time of maximum accumulation): 30 min
elimination from the liver [2]: after a longer period of time
maximum accumulation in the liver [2]: after a longer period of time
